For the assay, the target named is T1, LBS (Rattus norvegicus, UniProt Q02563).
T1 construct: from tissue; host or cells: rat brain (crude membranes)
The assay can be described thus: Saturation binding of [^3H]-compound 7 to crude rat brain membranes. To be noted: 4° C., 120 min, read-out: Kd of [^3H]-compound 7, saturation binding curves. As for the experimental part:
FIG. 1 depicts the saturation binding curves of [^3H]-compound 7 with rat brain membranes. Y-axis represents bound to free radioligand ratio: B/F (fmol/assay/nM) and X-axis represents bound radioligand: B (fmol/assay).
This example describes the binding properties of [^3H]-compound 7. Binding experiments were conducted on crude rat brain membranes at 4° C. as described in Noyer M. et al. (Euro. J. Pharmacol. (1995), 286, 137-146). Incubation time for equilibrium studies was 120 min. [^3H]-compound 7 (25 Ci/mmol) was used at a concentration of 0.4 nM in 0.5 ml of a Tris-HCl (pH 7.4) buffer containing 2 mM Mg^2+. […] The Bmax being similar to the value estimated using [^3H]-L059 as radioligand in similar membrane preparations (5 pmol/mg protein). […] The pKi of compound 7 (7.5) agrees well with the KD of [^3H]-compound 7 as determined by the saturation binding curve (FIG. 2).

The chains behind the UniProt entries cited, without tags or fusion partners.
UniProt Q02563, whole entry: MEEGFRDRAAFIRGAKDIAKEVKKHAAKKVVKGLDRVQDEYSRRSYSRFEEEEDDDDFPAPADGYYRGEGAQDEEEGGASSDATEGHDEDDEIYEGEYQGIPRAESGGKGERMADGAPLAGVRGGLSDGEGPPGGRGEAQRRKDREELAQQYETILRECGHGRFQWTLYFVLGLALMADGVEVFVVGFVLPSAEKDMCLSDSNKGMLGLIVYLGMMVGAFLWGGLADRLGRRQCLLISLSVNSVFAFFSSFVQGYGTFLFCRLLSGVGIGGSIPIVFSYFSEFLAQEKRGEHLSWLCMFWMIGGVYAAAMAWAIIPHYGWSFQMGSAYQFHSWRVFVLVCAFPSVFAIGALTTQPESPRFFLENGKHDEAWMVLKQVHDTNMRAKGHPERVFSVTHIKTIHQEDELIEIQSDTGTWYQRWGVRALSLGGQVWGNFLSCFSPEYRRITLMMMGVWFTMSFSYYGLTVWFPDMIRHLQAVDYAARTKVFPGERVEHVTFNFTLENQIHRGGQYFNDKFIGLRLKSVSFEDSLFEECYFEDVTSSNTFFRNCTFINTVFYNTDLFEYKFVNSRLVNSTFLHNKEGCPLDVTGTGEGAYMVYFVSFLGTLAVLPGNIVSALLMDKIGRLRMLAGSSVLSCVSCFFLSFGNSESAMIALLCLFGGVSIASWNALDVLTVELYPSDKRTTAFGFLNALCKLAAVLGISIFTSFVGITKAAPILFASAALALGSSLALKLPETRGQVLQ

As to “[^3H]-(+)-4-(3-azido-2,4-difluorophenyl)-1-(1H-imidazol-1-ylmethyl)pyrrolidin-2-one [[^3H]-compound 7]”, the Kd came out at 13 nM.

The record behind these values is patent US7763644B2, “Imidazole derivatives, processes for preparing them and their uses” (UCB Pharma, S.A., priority 2003, dated 2010).
